# Mito fusion yeast – blocks mitochondrial division or promotes mitochondrial fusion; S. cerevisiae fusion-defective mutant growth rescue, CellTiterGlo 48 h; Potency, µM (highest dose often 46.1 µM), for the others: at the top dose growth rescue (activation), actives largely listed as activators; 320,000 compounds, 0.23% hits; AID 485298; also: potency is read from the fitted curve at half-maximal effect; % of control where 0% means no effect; nearly all actives have a fitted effect of over 45% in size
#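 Temperature-sensitive fusion-defective S. cerevisiae (e.g. fzo1-1, mgm1-5) were grown with compound in YPEG medium (3% ethanol, 3% glycerol) for 48 hours at 37C. Growth rescue was measured as viability by CellTiterGlo luminescence after 10 minutes at ambient.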
# Nrf2 block – inhibitors of Nrf2 signaling; Potency, µM (top dose mostly 46 µM), for the others: at the top dose activity change, negative = inhibition, most hits filed as inhibitors; 360,000 compounds, 2.1% hits; A549 ARE-Fluc reporter, luciferase luminescence, 18-24 h; also: potency is read from the fitted curve at half-maximal effect; % is scaled to controls: 0 for no effect and ±100 for the full control effect; nearly all actives have a fitted effect of over 60% in size
#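 A549 ARE_Fluc cells, 5000/well, 5% FBS OPTI-MEM; compounds in dose-response, 18-24 h at 37 °C/5% CO2; CellTiter-Fluor viability read (Ex 405/Em 525), then BugLite luciferase luminescence = Nrf2 activity.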
# miR-21 reporter – raises the signal of a miR-21 reporter; AID 2288; 340,000 tested, under 10 active; Potency, µM (doses to about 38.3 µM), inactives show at the top dose reporter change, positive = more light; HeLa miR-21 FLuc reporter, luciferase, 48 h; active = well fitted rising curve with a large enough effect; inconclusive = small, poorly fitted or top-dose-only effect; inactive = no such curve, though single readings can be large or run the other way;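 note: % of control where 0% means no effect; miR-21 action dims this reporter so a rising signal means less miR-21 action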
#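 Compounds were titrated across several concentrations (up to approximately 40 uM) and incubated 48 hours with HeLa miR-21-FLuc reporter cells (miR-21 target sequence downstream of FLuc, endogenous miR-21). Readout was firefly luciferase luminescence after lytic detection reagent.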
# Nrf2 ARE act – Nrf2 pathway activation; AID 624171; Potency, µM (top dose mostly 46.1 µM), without a hit: top-dose activation, most hits filed as activators; 410,000 compounds, 0.31% hits; AREc32 ARE-luciferase reporter (MCF7-derived line), luminescence, 24 h; also: potency is read from the fitted curve at half-maximal effect; % of control where 0% means no effect; nearly all actives have a fitted effect of over 65% in size
#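 Steps: seed AREc32_Fluc cells (1000/well, 5% FBS OPTI-MEM); incubate overnight at 37 deg C; add 23 nL compound; incubate 24 hr; add Steady-Glo; hold 30 min RT; read luminescence.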
# A549 tox – counter-screen for Nrf2 inhibitors: cytotoxicity in A549 cells; 390,000 compounds, 0.16% hits; Potency, µM (top dose mostly 46 µM), for inactives: at the highest dose activity change, negative = cytotoxicity, hits mostly inhibitors; A549 ARE-Fluc cells, CellTiter-Fluor viability, 18-24 h; also: potency is read from the fitted curve at half-maximal effect; % is scaled to controls: 0 for no effect and ±100 for the full control effect
#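 A549 ARE_Fluc cells in 5% FBS OPTI-MEM were exposed to compounds in concentration-response for 18-24 h at 37 deg C. Viability was read by CellTiter-Fluor fluorescence (Ex 405/Em 525) after 30 min, before the luciferase read.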
# The depositor's hits bear a star; ? = inconclusive; . = no result given. An excerpt weighted towards active compounds, which were near 2.3% of everything screened. Unless noted, calls follow the shape of the dose curve; as a rule, active = well fitted curve in the direction sought with a large enough effect; inconclusive = small, poorly fitted or top-dose-only effect, or another doubt; inactive = no such curve, though single readings can be large; an effect the other way counts as inactive or inconclusive.
1) Cc1ccc2c(n1)sc1c(-c3ccc(Br)cc3)c(C#N)c(N)nc12
2) Cc1ccc(NC(=O)O/N=C/c2c(C)nn(C(C)(C)C)c2C)cc1Cl
3) CC(=O)Nc1ccccc1NS(=O)(=O)c1ccccc1NO
4) COc1cc2cc(C(=O)N/N=C/c3ccc(F)cc3)[nH]c2cc1OC
5) COc1ccc(/C=N/NC(=O)c2cc3cc(OC)c(OC)cc3[nH]2)cc1
6) COc1ccc2[nH]c(C(=O)N/N=C/c3ccc(O)cc3O)cc2c1
Screen / compound no.	1	2	3	4	5	6
Mito fusion yeast	9.9%	-0.7%	.	6.1%	-2.1%	6.6%
Nrf2 block	20.6µM*	0.326µM*	?	-15.2%	20.6µM*	2.31µM*
miR-21 reporter	-5.8%	?	.	-1.1%	-0.5%	16.3%
Nrf2 ARE act	4.2%	-3.3%	.	2.0%	2.5%	-0.5%
A549 tox	?	1.3%	-4.4%	2.0%	0.4%	-30.0%

7) CCC1Oc2ccc(Cl)cc2N(CC(=O)NCCc2ccc(Cl)cc2)C1=O (stereo not drawn)
8) CCOC(=O)C(Cc1c[nH]c2ccccc12)NC(=O)COc1ccc(Cl)c(C)c1 (stereo not drawn)
9) O=C1CC(c2ccco2)CC2=C1C(c1ccc(O)cc1)n1nc(C(F)(F)F)nc1N2 (stereo not drawn)
10) Cc1cc(C)nc(SCCC(=O)Nc2cccc3ccccc23)n1
11) Cc1cc(C)nc(SCCC(=O)Nc2ccccc2Cl)n1
12) CCN(c1ccc(NC(=O)c2ccc(N3CCCC3=O)cc2)cc1)C(C)C
Screen / compound no.	7	8	9	10	11	12
Mito fusion yeast	.	.	.	1.5%	8.1%	-9.5%
Nrf2 block	.	-5.2%	-15.9%	-23.4%	11.6µM*	9.2µM*
miR-21 reporter	7.9%	-3.6%	.	-8.7%	-10.3%	.
Nrf2 ARE act	-0.8%	5.5%	.	0.3%	0.1%	-0.7%
A549 tox	2.1%	-0.4%	-5.7%	-9.7%	-0.1%	-21.2%

13) O=C(NCc1ccc2c(c1)OCO2)C(=O)NCC1OCCN1S(=O)(=O)c1ccc(Br)cc1 (stereo not drawn)
14) O=C(NCCc1c[nH]c2ccccc12)C(=O)NCC1OCCN1S(=O)(=O)c1ccc(Cl)cc1 (stereo not drawn)
15) O=C(NCc1ccc2c(c1)OCO2)C(=O)NCC1OCCN1S(=O)(=O)c1ccc(Cl)cc1 (stereo not drawn)
16) O=C(NCCc1c[nH]c2ccccc12)C(=O)NCC1OCCN1S(=O)(=O)c1ccccc1 (stereo not drawn)
17) COc1ccc(-c2cc(NCc3ccc(C)cc3)n3cnnc3n2)cc1
18) Fc1ccc(C[n+]2csc3ccccc32)cc1
Screen / compound no.	13	14	15	16	17	18
Mito fusion yeast	1.9%	4.4%	-0.2%	-2.3%	.	1.9%
Nrf2 block	?	23.1µM*	25.9µM*	?	?	6.7%
miR-21 reporter	17.5%	27.3%	11.2%	6.0%	?	1.2%
Nrf2 ARE act	0.9%	-1.2%	-0.1%	2.3%	1.2%	4.9%
A549 tox	-0.6%	-11.9%	-4.9%	4.7%	-0.7%	0.5%

19) Clc1ccc(C[n+]2csc3ccccc32)cc1
20) O=C(CNC(=O)c1ccc2ccccc2c1)OC(C(=O)Nc1cc(C(F)(F)F)ccc1Cl)c1ccccc1 (stereo not drawn)
21) CC(=O)c1ccc(NS(=O)(=O)c2cccc(S(=O)(=O)c3ccc(Cl)cc3)c2)cc1
22) Cc1ccc(OC(=O)c2snnc2C)cc1C
23) Nc1nc(SCC(=O)Nc2cccc(C(F)(F)F)c2)n[nH]1
24) Nc1nc(SCC(=O)Nc2cccc(F)c2)n[nH]1
Screen / compound no.	19	20	21	22	23	24
Mito fusion yeast	11.2µM*	.	.	.	.	.
Nrf2 block	24.2%	2.5%	-18.3%	12.2%	18.4µM*	6.3%
miR-21 reporter	-18.0%	.	-0.9%	-6.4%	0.2%	.
Nrf2 ARE act	7.0%	.	-0.1%	0.3%	0.7%	0.3%
A549 tox	-0.4%	9.8%	15.8%	0.6%	3.7%	-0.6%

# An excerpt of these results, with tabs.
item	molecule	Mito fusion yeast	Nrf2 block	miR-21 reporter	Nrf2 ARE act	A549 tox
14	O=C(NCCc1c[nH]c2ccccc12)C(=O)NCC1OCCN1S(=O)(=O)c1ccc(Cl)cc1 (stereo not drawn)	4.4%	23.1µM*	27.3%	-1.2%	-11.9%
15	O=C(NCc1ccc2c(c1)OCO2)C(=O)NCC1OCCN1S(=O)(=O)c1ccc(Cl)cc1 (stereo not drawn)	-0.2%	25.9µM*	11.2%	-0.1%	-4.9%
16	O=C(NCCc1c[nH]c2ccccc12)C(=O)NCC1OCCN1S(=O)(=O)c1ccccc1 (stereo not drawn)	-2.3%	?	6.0%	2.3%	4.7%

# Following part
25) COc1ccc(NC(=O)CC2SC(N3CCOCC3)=NC2=O)cc1OC (stereo not drawn)
26) O=C1CCCN2N=C(SCC(=O)Nc3cccc(Cl)c3)SC2=N1
27) O=C(CC1SC(N2CCCCC2)=NC1=O)Nc1cccc(C(F)(F)F)c1 (stereo not drawn)
28) O=C1CCCN2N=C(SCC(=O)Nc3cccc(C(F)(F)F)c3)SC2=N1
29) CN1CCc2sc(NC(=O)Cc3ccccc3)c(C(=O)Nc3ccc(Cl)cc3)c2C1
30) COc1cc(/C=N/NC(=O)c2ccc(-c3ccccc3)cc2)cc(OC)c1OC
Screen / compound no.	25	26	27	28	29	30
Mito fusion yeast	-3.6%	6.8%	-0.6%	-10.3%	.	.
Nrf2 block	14.6µM*	-76.9%	20.6µM*	16.4µM*	18.3%	?
miR-21 reporter	.	12.8%	0.8%	20.0%	.	-0.4%
Nrf2 ARE act	0.0%	2.9%	2.4%	6.2%	.	4.6%
A549 tox	-4.3%	1.8%	-11.2%	-0.2%	-3.3%	0.7%

# Screening data deposited in PubChem BioAssay by National Center for Advancing Translational Sciences (NCATS).
